# The entries are a selection whose mix differs from that of the whole data set. Calls of active or inactive are those of the source.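 The calls were made as follows: active = inhibition above the mean inhibition of all tested compounds plus 3 SD, set per campaign (cut at about 40% in these data); inactive = the rest.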
# Amino acid sequences for entries named in this document (tags omitted).
# UniProt Q07820, whole entry: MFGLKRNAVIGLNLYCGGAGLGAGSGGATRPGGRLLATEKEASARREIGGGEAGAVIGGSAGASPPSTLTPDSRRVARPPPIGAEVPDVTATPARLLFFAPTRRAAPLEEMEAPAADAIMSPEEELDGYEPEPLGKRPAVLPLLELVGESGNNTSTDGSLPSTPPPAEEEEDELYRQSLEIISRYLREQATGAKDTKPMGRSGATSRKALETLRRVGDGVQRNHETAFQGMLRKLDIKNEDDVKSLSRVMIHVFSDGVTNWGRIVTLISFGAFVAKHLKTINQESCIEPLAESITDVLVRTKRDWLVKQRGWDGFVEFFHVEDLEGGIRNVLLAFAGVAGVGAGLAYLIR
# Target: Induced myeloid leukemia cell differentiation protein Mcl-1 (Homo sapiens) (UniProt Q07820)
# Assay: MCL1-BIM peptide interaction disruptors – biochemical, fluorescence polarization, primary screen (AID 2057);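 also: 0% = DMSO wells and 100% = unlabeled Bim-BH3 peptide control; higher means more loss of mP so more displacement of Bim peptide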
# Details: GST-MCL1 / FITC-Bim-BH3 fluorescence polarization; at 10.9 µM; stronger effect = higher value
row,Compound,inhibition
1,COc1cc(OC)c(C(=O)NCC2(N(C)C)CCCCC2)cc1OC,inactive: 1.52%
2,CC(C)c1ccc(NC2CCN(C(=O)OC(C)(C)C)CC2)cc1,inactive: 4.62%
3,COc1ccc(CN(CCCl)CCCl)cc1Cl,inactive: -6.47%
4,CN(C)c1cccc(C(=O)NCC2(N3CCCCC3)CCCCC2)c1,inactive: 0.81%
5,CN1CCC(Nc2cccc(F)c2)CC1,inactive: -0.84%
6,O=C(NCC1(N2CCCCC2)CCCCC1)c1cncc(Br)c1,inactive: -2.27%
7,CCN1CCC(Nc2ccc(Cl)cc2)CC1,inactive: 9.99%
8,N#CC1(Nc2ccccc2)CCN(CCc2ccccc2)CC1,inactive: 2.92%
9,O=C(NCC1(N2CCCCC2)CCCCC1)c1cccc([N+](=O)[O-])c1,inactive: -4.44%
10,O=C(NCC1(N2CCCCC2)CCCCC1)c1ccc(OC(F)F)cc1,inactive: -15.6%
11,COc1cc(C(=O)NCC2(N3CCCCC3)CCCCC2)ccc1OC(F)F,inactive: -18%
12,O=C(NCC1(N2CCOCC2)CCCCC1)c1cc(=O)[nH]c2ccccc12,inactive: 2.9%
13,CN1CCN(CCOC(=O)C(O)(c2ccccc2)c2ccccc2)CC1,inactive: 4.27%
14,COc1ccc(NC2CCN(C(=O)OC(C)(C)C)CC2)cc1,inactive: 17%
15,O=C(NCC1(N2CCCCC2)CCCCC1)c1cccc(C(F)(F)F)c1,inactive: 0.96%
16,O=C(NCC1(N2CCCCC2)CCCCC1)c1ccc(F)cc1,inactive: -2.44%
17,COc1ccc(NC2CCN(CCc3ccccc3)CC2)c(OC)c1,inactive: 1.73%
18,CCOc1ccc(C)cc1CN(CCCl)CCCl,inactive: 5.5%
19,CCOC(=O)N1CCC(Nc2cccc(C)c2)CC1,inactive: 8.37%
20,Cc1ccc(OCC(C)C)c(CN(CCCl)CCCl)c1,inactive: 2.53%
21,CSc1ccccc1C(=O)NCC1(N2CCCCC2)CCCCC1,inactive: 2.27%

row,Compound,inhibition
1,COc1ccc(C(=O)NCC2(N3CCCCC3)CCCCC2)cc1,inactive: -3.48%
2,CC(C)(C)OC(=O)N1CCC(N(C(=O)c2ccccc2)c2ccc(F)cc2)CC1,inactive: -0.54%
3,COc1ccc(C(=O)NCC2(N3CCCCC3)CCCCC2)c(OC)c1OC,inactive: 5.89%
4,O=C(NCC1(N2CCCCC2)CCCCC1)c1ccc(=O)[nH]c1,inactive: 4.81%
5,O=C(NCC1(N2CCCCC2)CCCCC1)c1cccs1,inactive: -12%
6,N#CC1(Nc2ccccc2)CCN(Cc2ccccc2)CC1,inactive: 2.55%
7,O=C(NCC1(N2CCCCC2)CCCCC1)c1ccc(Cl)s1,inactive: -0.27%
8,O=C(OC1CN2CCC1CC2)C1c2ccccc2Oc2ccccc21 (stereo unspecified),inactive: 32.9%
9,COc1ccc(Cl)cc1C(=O)NCC1(N2CCOCC2)CCCCC1,inactive: -7.6%
10,CCOC(=O)N1CCC(Nc2ccc(OC)cc2)CC1,inactive: 20.2%
11,O=C(NCC1(N2CCCCC2)CCCCC1)c1ccc(Cl)nc1,inactive: -18.1%
12,Cc1cc(C)cc(N(C(=O)c2ccccc2)C2CCN(C(=O)OC(C)(C)C)CC2)c1,inactive: 6.05%
13,O=C(NCC1(N2CCOCC2)CCCCC1)c1cc2ccccc2o1,inactive: 5.42%
14,CC(C)(C)OC(=O)N1CCC(Nc2ccccc2)CC1,inactive: -0.16%
15,O=C(O)C1(Nc2ccccc2)CCN(Cc2ccccc2)CC1,inactive: -0.58%
16,CCCOc1ccc(C(=O)NCC2(N(C)C)CCCCC2)cc1,inactive: 3.1%
17,CCOc1ncccc1C(=O)NCC1(N2CCOCC2)CCCCC1,inactive: 7.29%
18,CN1CCC(Nc2ccc(F)c(Cl)c2)CC1,inactive: 7.84%
19,CN1CCC(Nc2ccc(Cl)cc2)CC1,inactive: 6.42%
20,CCCOc1ccc(C)cc1CN(CCCl)CCCl,inactive: -1.1%
21,COc1cc(OC)cc(C(=O)NCC2(N3CCOCC3)CCCCC2)c1,inactive: -5.75%

row,Compound,inhibition
1,COc1cccc(C(=O)N(c2cc(C)cc(C)c2)C2CCN(C(=O)OC(C)(C)C)CC2)c1,inactive: -6.45%
2,CCC(CO)(C(=O)OC1CN2CCC1CC2)c1ccccc1 (stereo unspecified),inactive: 7.62%
3,Cc1ccc(C(=O)NCC2(N3CCCCC3)CCCCC2)o1,inactive: -4.5%
4,Fc1ccccc1NC1CCN(Cc2ccccc2)CC1,inactive: 0.35%
5,COc1cc(OC)cc(C(=O)NCC2(N3CCCCC3)CCCCC2)c1,inactive: 3.32%
6,O=C(NCC1(N2CCCCC2)CCCCC1)c1ccco1,inactive: 3.49%
7,CN(C)c1ccc(C(=O)NCC2(N3CCCCC3)CCCCC2)cc1,inactive: -1.32%
8,CCN1CCC(Nc2cccc(F)c2)CC1,inactive: -3.72%
9,N#Cc1ccc(C(=O)NCC2(N3CCCCC3)CCCCC2)cc1,inactive: -2.28%
10,CC(C)(C)OC(=O)N1CCC(N(C(=O)c2ccccc2)c2ccc(Cl)cc2)CC1,inactive: 11.3%
11,CN(C)C1(CNC(=O)c2cccc(C#N)c2)CCCCC1,inactive: -4.37%
12,c1ccc(CN2CCC(Nc3ccccc3)CC2)cc1,inactive: -2.97%
13,CCCN1CCC(Nc2cc(OC)cc(OC)c2)CC1,active: 40.7%
14,COc1ccc(C(=O)NCC2(N3CCOCC3)CCCCC2)cc1OC,inactive: -2.84%
15,O=C(NCC1(N2CCOCC2)CCCCC1)c1cc(Br)ccc1Cl,inactive: 0.28%
16,CCc1cc(C(=O)NCC2(N3CCCCC3)CCCCC2)sc1C,inactive: 2.31%
17,O=C(OC1CN2CCC1CC2)C1c2ccccc2C=Cc2ccccc21 (stereo unspecified),inactive: 2.46%
18,CCOC(=O)N1CCC(Nc2ccc(C)cc2)CC1,inactive: 9.37%
19,N/C(=N\O)c1c(N)no[n+]1[O-],inactive: -3.47%

# Reference: PubChem BioAssay AID2057 (The Scripps Research Institute Molecular Screening Center, 2009)
